According to patent publication US20220275376A1, “TARGETING SLC38A2 IN PANCREATIC CANCER” (New York University, priority 2019, published 2022):

Target: T1, SLC38A2 (Homo sapiens, UniProt Q96QD8)
T1 construct: expressed in transfected cells; host or cells: HY15549 cells with dox-inducible SNAT2
T1 sequence (Q96QD8 1-506): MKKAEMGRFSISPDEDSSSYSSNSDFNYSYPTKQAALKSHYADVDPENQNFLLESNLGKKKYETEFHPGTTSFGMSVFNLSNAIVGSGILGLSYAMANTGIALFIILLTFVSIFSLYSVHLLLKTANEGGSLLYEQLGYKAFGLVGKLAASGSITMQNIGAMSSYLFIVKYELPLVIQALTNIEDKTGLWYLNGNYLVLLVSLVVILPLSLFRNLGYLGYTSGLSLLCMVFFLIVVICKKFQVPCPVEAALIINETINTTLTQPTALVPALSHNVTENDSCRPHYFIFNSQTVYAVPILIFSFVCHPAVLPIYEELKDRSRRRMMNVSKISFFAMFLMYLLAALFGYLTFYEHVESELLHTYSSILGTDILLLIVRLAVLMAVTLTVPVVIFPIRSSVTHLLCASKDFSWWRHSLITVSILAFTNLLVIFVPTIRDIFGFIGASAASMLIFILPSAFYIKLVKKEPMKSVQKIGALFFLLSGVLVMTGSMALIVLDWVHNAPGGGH
Experiment: SLC38A2 activity measured by MeAIB uptake in HY15549 dox-inducible SNAT2 cells
Assay type: cell-based
Conditions: 20 μm compound, MeAIB 0.3 mM, 1 hour, vs vehicle (PBS), HY15549 cells expressing dox-inducible SLC38A2/SNAT2
Protocol: (A) Schematic depicting SLC38A2-dependent update of alanine structural analog, methyl α-aminoisobutyrate (MeAIB). […] (B) Total ion chromatogram (TIC) of HY15549 dox-inducible SNAT2 cells treated with 1 mM MeAIB for 24 hours compared to vehicle (PBS). […] HY15549 dox-inducible SNAT2 cells were cultured with a concentration gradient of MeAIB for 15 minutes (gray circles) or 60 minutes (black squares). (D) Western blot depicting SLC38A2 expression relative to doxycycline after 24 hours culture in HY15549 dox-inducible SNAT2 cells. (E) Intracellular MeAIB levels in HY15549 dox-inducible cells cultured with dox (+SNAT2, left bar) and without dox (KO, right bar) for 24 hours with 1 mM MeAIB. (F) Intracellular MeAIB levels in HY15549 dox-inducible cells cultured with vehicle, paroxetine (PXT, 20 μM), or sertraline (SRT, 20 μm) for 24 hours with 300 μM MeAIB.

**Q.** For CNCCC(Oc1ccc(C(F)(F)F)cc1)c1ccccc1 (racemic) [fluoxetine], which “inhibition of MeAIB uptake (intracellular MeAIB levels)” value is on record?
**A.** Its value is “inhibited”.
